Patent US20260210971A1 (Pfizer, published 2026)

Protein sequences, listed by entry. Tags and fused reporters are not part of them. Residues count along the entry.
UniProt P01375, 77-233 limits assumed: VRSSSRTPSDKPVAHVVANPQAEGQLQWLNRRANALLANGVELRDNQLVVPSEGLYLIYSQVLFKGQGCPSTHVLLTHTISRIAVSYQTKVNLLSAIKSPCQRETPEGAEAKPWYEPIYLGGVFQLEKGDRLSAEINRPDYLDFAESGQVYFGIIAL

Biological target: T1, human TNF-α (human, UniProt P01375 77-233)
T1 construct: also called TNF alpha
Experiment: plate ELISA, cytokine coated, antibody titrated

EC50: 0.04 ng/mL
B1: anti-TNF-α infliximab antibody (antibody, V domains shown)
VH: EVKLEESGGGLVQPGGSMKLSCVASGFIFSNHWMNWVRQSPEKGLEWVAEIRSKSINSATHYAESVKGRFTISRDDSKSAVYLQMTDLRTEDTGVYYCSRNYYGSTYDYWGQGTTLTVSS
VL: DILLTQSPAILSVSPGERVSFSCRASQFVGSSIHWYQQRTNGSPRLLIKYASESMSGIPSRFSGSGSGTDFTLSINTVESEDIADYYCQQSHSWPFTFGSGTNLEVKR
